pKi: −log10 of the molar value.
These molecules were tested against Recombinant heterodimeric HCV NS3/NS4A protease (strain 1a) (Hepatitis C virus genotype 1a, UniProt P27958) (assay: Spectrophotometric assay for HCV protease inhibitory activity). Conditions: Table 1, range.
Format: biochemical

Sequences of proteins named here, by UniProt entry; tags and fusion partners are left off. Residues count along the entry.
UniProt P27958, 1027-1657: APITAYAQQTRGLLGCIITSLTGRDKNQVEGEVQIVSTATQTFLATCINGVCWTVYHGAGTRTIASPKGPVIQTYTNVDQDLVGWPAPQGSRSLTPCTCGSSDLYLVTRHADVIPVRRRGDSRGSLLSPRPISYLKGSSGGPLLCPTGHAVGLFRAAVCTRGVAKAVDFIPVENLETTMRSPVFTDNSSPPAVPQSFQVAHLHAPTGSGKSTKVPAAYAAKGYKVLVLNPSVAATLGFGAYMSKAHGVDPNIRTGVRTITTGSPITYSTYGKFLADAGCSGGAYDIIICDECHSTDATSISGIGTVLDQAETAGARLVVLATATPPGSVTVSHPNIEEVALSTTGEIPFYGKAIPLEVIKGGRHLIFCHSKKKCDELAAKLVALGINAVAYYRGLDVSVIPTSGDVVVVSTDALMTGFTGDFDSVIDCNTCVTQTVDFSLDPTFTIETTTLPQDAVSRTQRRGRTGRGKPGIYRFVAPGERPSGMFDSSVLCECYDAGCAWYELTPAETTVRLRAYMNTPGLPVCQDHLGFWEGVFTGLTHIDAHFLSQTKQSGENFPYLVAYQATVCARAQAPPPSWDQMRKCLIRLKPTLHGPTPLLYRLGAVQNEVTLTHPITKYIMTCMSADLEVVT
UniProt P27958, 1658-1711: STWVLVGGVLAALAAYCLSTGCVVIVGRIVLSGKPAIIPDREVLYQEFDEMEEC

Structure (SMILES)	pKi
C=CCNC(=O)C(=O)C(CCCC)NC(=O)[C@@H]1[C@@H]2[C@H](CN1C(=O)[C@@H](NC(=O)N[C@H](CN(C)S(=O)(=O)N1CCCCC1)C(C)(C)C)C(C)(C)C)C2(C)C (some centres unmarked) [Compound 10005]	≥ 7.12
C=CCNC(=O)C(=O)C(CCC)NC(=O)[C@@H]1[C@@H]2[C@H](CN1C(=O)[C@@H](NC(=O)N[C@H](CN(C)S(=O)(=O)N(C)C(=O)OCc1ccccc1)C(C)(C)C)C1CCCCC1)C2(C)C (some centres unmarked) [Compound 10229]	≥ 7.12
C=CCNC(=O)C(=O)C(CC1CCC1)NC(=O)[C@@H]1[C@@H]2[C@H](CN1C(=O)[C@@H](NC(=O)N[C@H](CN(C)S(=O)(=O)N(C)C)C(C)(C)C)C(C)(C)C)C2(C)C (some centres unmarked) [Compound 10001]	≥ 7.12
C=CCNC(=O)C(=O)C(CC1CC1)NC(=O)[C@@H]1[C@@H]2[C@H](CN1C(=O)[C@@H](NC(=O)N[C@H](CN(C)S(=O)(=O)N(C)C)C(C)(C)C)C(C)(C)C)C2(C)C (some centres unmarked) [Compound 10013]	≥ 7.12
C#CCCC(NC(=O)[C@@H]1[C@@H]2[C@H](CN1C(=O)[C@@H](NC(=O)N[C@H](CN(C)S(=O)(=O)N(C)C)C(C)(C)C)C1CCCCC1)C2(C)C)C(=O)C(=O)NCC (some centres unmarked) [Compound 10077]	≥ 7.12

Same assay, conditions: Table 2, range

Structure (SMILES)	pKi
C=CCNC(=O)C(=O)C(CC1CC1)NC(=O)[C@@H]1[C@@H]2[C@H](CN1C(=O)[C@@H](NC(=O)NC1(CN(C)S(=O)(=O)c3ccccc3)CCCCC1)C(C)(C)C)C2(C)C (some centres unmarked) [Compound 11013]	≥ 7.12
C=CCNC(=O)C(=O)C(CCC(F)(F)F)NC(=O)[C@@H]1[C@@H]2[C@H](CN1C(=O)[C@@H](NC(=O)N[C@H](CN(C)S(=O)(=O)c1ccccn1)C(C)(C)C)C1CCCCC1)C2(C)C (some centres unmarked) [Compound 11296]	≥ 7.12
CCCC(NC(=O)[C@@H]1[C@@H]2[C@H](CN1C(=O)[C@@H](NC(=O)N[C@H](CN(C)S(=O)(=O)c1cccs1)CC(C)(C)C)C(C)(C)C)C2(C)C)C(=O)C(N)=O (some centres unmarked) [Compound 11249]	≥ 7.12
CC(C)(C)CCN(C[C@@H](NC(=O)N[C@H](C(=O)N1C[C@H]2[C@@H]([C@H]1C(=O)NC(CC1CCC1)C(=O)C(N)=O)C2(C)C)C(C)(C)C)C(C)(C)C)S(C)(=O)=O (some centres unmarked) [Compound 11175]	≥ 7.12
C=CCNC(=O)C(=O)C(CCC(F)(F)F)NC(=O)[C@@H]1[C@@H]2[C@H](CN1C(=O)[C@@H](NC(=O)N[C@H](CN(C)S(C)(=O)=O)C(C)(C)C)C1CCCCC1)C2(C)C (some centres unmarked) [Compound 11058]	≥ 7.12
C=CCNC(=O)C(=O)C(CCCC)NC(=O)[C@@H]1[C@@H]2[C@H](CN1C(=O)[C@@H](NC(=O)N[C@H](CN(C)S(=O)(=O)c1ccccc1)C(C)C)C(C)(C)C)C2(C)C (some centres unmarked) [Compound 11033]	≥ 7.12
C=CCNC(=O)C(=O)C(CCCC)NC(=O)[C@@H]1[C@@H]2[C@H](CN1C(=O)[C@@H](NC(=O)NC1(CN(C)S(C)(=O)=O)CCCCC1)C1CCCCC1)C2(C)C (some centres unmarked) [Compound 11066]	≥ 7.12
C=CCNC(=O)C(=O)C(CC1CC1)NC(=O)[C@@H]1[C@@H]2[C@H](CN1C(=O)[C@@H](NC(=O)N[C@H](CN(C)S(=O)(=O)c1ccc(C)cc1)C(C)(C)C)C(C)(C)C)C2(C)C (some centres unmarked) [Compound 11345]	≥ 7.12
C#CCNC(=O)C(=O)C(CCCC)NC(=O)[C@@H]1[C@@H]2[C@H](CN1C(=O)[C@@H](NC(=O)N[C@H](CN(C)S(C)(=O)=O)C(C)(C)C)C1Cc3ccccc3C1)C2(C)C (some centres unmarked) [Compound 11272]	≥ 7.12
CCCC(NC(=O)[C@@H]1[C@@H]2[C@H](CN1C(=O)[C@@H](NC(=O)N[C@H](CN(C)S(=O)(=O)c1cccs1)[C@@H](C)CC)C(C)(C)C)C2(C)C)C(=O)C(=O)NCC (some centres unmarked) [Compound 11087]	6.60 to 7.12
C=CCNC(=O)C(=O)C(CCC)NC(=O)[C@@H]1[C@@H]2[C@H](CN1C(=O)[C@@H](NC(=O)N[C@H](CN(C)S(=O)(=O)C(C)C)C(C)(C)C)C(C)(C)C)C2(C)C (some centres unmarked) [Compound 11109]	≥ 7.12
CC(C)(C)[C@H](NC(=O)N[C@H](CN(Cc1ccccc1)S(C)(=O)=O)C(C)(C)C)C(=O)N1C[C@H]2[C@@H]([C@H]1C(=O)NC(CC1CCC1)C(=O)C(N)=O)C2(C)C (some centres unmarked) [Compound 11153]	≥ 7.12
CCCC(NC(=O)[C@@H]1[C@@H]2[C@H](CN1C(=O)[C@@H](NC(=O)N[C@H](CN(C)S(=O)(=O)c1cccs1)[C@@H](C)CC)C(C)(C)C)C2(C)C)C(=O)C(=O)NCCC(F)(F)F (some centres unmarked) [Compound 11113]	6.60 to 7.12
C=CCNC(=O)C(=O)C(CC1CC1)NC(=O)[C@@H]1[C@@H]2[C@H](CN1C(=O)[C@@H](NC(=O)N[C@H](CN(C)S(=O)(=O)c1ccccn1)C(C)(C)C)C(C)(C)C)C2(C)C (some centres unmarked) [Compound 11145]	≥ 7.12
CCCC(NC(=O)[C@@H]1[C@@H]2[C@H](CN1C(=O)[C@@H](NC(=O)N[C@H](CN(C)S(=O)(=O)c1ccccc1)CC(C)(C)C)C(C)(C)C)C2(C)C)C(=O)C(N)=O (some centres unmarked) [Compound 11250]	≥ 7.12
C#CCCC(NC(=O)[C@@H]1[C@@H]2[C@H](CN1C(=O)[C@@H](NC(=O)N[C@H](CN(C)S(=O)(=O)c1ccccn1)C(C)(C)C)C1Cc3ccccc3C1)C2(C)C)C(=O)C(=O)NCC=C (some centres unmarked) [Compound 11376]	≥ 7.12

Structure (SMILES)	pKi
C=CCNC(=O)C(=O)C(CCC)NC(=O)[C@@H]1[C@@H]2[C@H](CN1C(=O)[C@@H](NC(=O)N[C@H](CN(C)S(=O)(=O)c1ccccc1)C(C)(C)C)C1CCCCC1)C2(C)C (some centres unmarked) [Compound 11077]	≥ 7.12
C=CCNC(=O)C(=O)C(CC1CC1)NC(=O)[C@@H]1[C@@H]2[C@H](CN1C(=O)[C@@H](NC(=O)N[C@H](CN(C)S(=O)(=O)C1CC1)CC(C)(C)C)C(C)(C)C)C2(C)C (some centres unmarked) [Compound 11107]	6.60 to 7.12
C=CCNC(=O)C(=O)C(CC1CCC1)NC(=O)[C@@H]1[C@@H]2[C@H](CN1C(=O)[C@@H](NC(=O)N[C@H](CN(C)S(=O)(=O)c1ccccc1)C(C)C)C1CCCCC1)C2(C)C (some centres unmarked) [Compound 11075]	≥ 7.12
C=CCNC(=O)C(=O)C(CC1CC1)NC(=O)[C@@H]1[C@@H]2[C@H](CN1C(=O)[C@@H](NC(=O)N[C@H](CN(C)S(=O)(=O)c1ccc(C(C)=O)cc1)C(C)(C)C)C(C)(C)C)C2(C)C (some centres unmarked) [Compound 11322]	≥ 7.12
CN([C@@H]1CCCC[C@@H]1NC(=O)N[C@H](C(=O)N1C[C@H]2[C@@H]([C@H]1C(=O)NC(CC1CCC1)C(=O)C(N)=O)C2(C)C)C(C)(C)C)S(C)(=O)=O (some centres unmarked) [Compound 11282]	6.60 to 7.12
C=CCNC(=O)C(=O)C(CCCC)NC(=O)[C@@H]1[C@@H]2[C@H](CN1C(=O)[C@@H](NC(=O)N[C@H](CN(C)S(=O)(=O)c1cccs1)C(C)(C)C)C1CCCCC1)C2(C)C (some centres unmarked) [Compound 11293]	≥ 7.12
C=CCNC(=O)C(=O)C(CC1CC1)NC(=O)[C@@H]1[C@@H]2[C@H](CN1C(=O)[C@@H](NC(=O)N[C@H](CN(C)S(=O)(=O)CC)C(C)(C)C)C1Cc3ccccc3C1)C2(C)C (some centres unmarked) [Compound 11288]	≥ 7.12
C=CCNC(=O)C(=O)C(CCCC)NC(=O)[C@@H]1[C@@H]2[C@H](CN1C(=O)[C@@H](NC(=O)N[C@H](CN(C)S(=O)(=O)C(C)(C)C)C(C)(C)C)C(C)(C)C)C2(C)C (some centres unmarked) [Compound 11213]	6.60 to 7.12
C#CCCC(NC(=O)[C@@H]1[C@@H]2[C@H](CN1C(=O)[C@@H](NC(=O)N[C@H](CN(C)S(=O)(=O)C(C)(C)C)C(C)(C)C)C1Cc3ccccc3C1)C2(C)C)C(=O)C(=O)NCC=C (some centres unmarked) [Compound 11274]	≥ 7.12
C=CCNC(=O)C(=O)C(CC1CC1)NC(=O)[C@@H]1[C@@H]2[C@H](CN1C(=O)[C@@H](NC(=O)N[C@H](CN(C)S(=O)(=O)c1ccccc1)C(C)C)C1CCCCC1)C2(C)C (some centres unmarked) [Compound 11047]	≥ 7.12
C=CCNC(=O)C(=O)C(CC1CCC1)NC(=O)[C@@H]1[C@@H]2[C@H](CN1C(=O)[C@@H](NC(=O)N[C@H](CN(C)S(=O)(=O)c1cccs1)C(C)(C)C)C1(C)CCCCC1)C2(C)C (some centres unmarked) [Compound 11148]	≥ 7.12
C=CCNC(=O)C(=O)C(CC1CC1)NC(=O)[C@@H]1[C@@H]2[C@H](CN1C(=O)[C@@H](NC(=O)N[C@H]1CCCC[C@H]1N(C)S(C)(=O)=O)C(C)(C)C)C2(C)C (some centres unmarked) [Compound 11283]	< 6.60
CCCC(NC(=O)[C@@H]1[C@@H]2[C@H](CN1C(=O)[C@@H](NC(=O)N[C@H](CN(C)S(=O)(=O)C(C)(C)C)C(C)(C)C)C(C)(C)C)C2(C)C)C(=O)C(=O)NCC (some centres unmarked) [Compound 11216]	6.60 to 7.12
C=CCNC(=O)C(=O)C(CCC)NC(=O)[C@@H]1[C@@H]2[C@H](CN1C(=O)[C@@H](NC(=O)N[C@H](C(=O)N(C)S(=O)(=O)c1ccccc1)C(C)C)C(C)(C)C)C2(C)C (some centres unmarked) [Compound 11381]	≥ 7.12
CN(C[C@@H](NC(=O)N[C@H](C(=O)N1C[C@H]2[C@@H]([C@H]1C(=O)NC(CC1CCC1)C(=O)C(N)=O)C2(C)C)C1CCCCC1)C(C)(C)C)S(C)(=O)=O (some centres unmarked) [Compound 11048]	≥ 7.12

Same assay, conditions: Table 3, range

Structure (SMILES)	pKi
CCCNC(=O)C(=O)C(CCC)NC(=O)[C@@H]1[C@@H]2[C@H](CN1C(=O)[C@@H](NC(=O)N[C@H](CNS(C)(=O)=O)[C@@H](C)CC)C(C)(C)C)C2(C)C (some centres unmarked) [Compound 12022]	< 6.60

Same assay, conditions: Table 4, range

Structure (SMILES)	pKi
C=CCNC(=O)C(=O)C(CC1CC1)NC(=O)[C@@H]1[C@@H]2[C@H](CN1C(=O)[C@@H](NC(=O)N[C@H](CN(C)C(=O)C1CC1)C(C)(C)C)C(C)(C)C)C2(C)C (some centres unmarked) [Compound 13017]	< 6.60

Same assay, conditions: Table 5, range

Structure (SMILES)	pKi
CC(C)[C@H](CNC(=O)OCc1ccccc1)NC(=O)N[C@H](C(=O)N1C[C@H]2[C@@H]([C@H]1C(=O)NC(CC1CC1)C(=O)C(N)=O)C2(C)C)C(C)(C)C (some centres unmarked) [Compound 14056]	≥ 7.12
CN(C[C@H](CC(C)(C)C)NC(=O)N[C@H](C(=O)N1C[C@H]2[C@@H]([C@H]1C(=O)NC(CC1CCC1)C(=O)C(N)=O)C2(C)C)C(C)(C)C)C(=O)OC(C)(C)C (some centres unmarked) [Compound 14047]	< 6.60
C=CCNC(=O)C(=O)C(CC1CC1)NC(=O)[C@@H]1[C@@H]2[C@H](CN1C(=O)[C@@H](NC(=O)N[C@H](CNC(=O)OCC)C(C)C)C(C)(C)C)C2(C)C (some centres unmarked) [Compound 14023]	6.60 to 7.12

Same assay, conditions: Table 6

Structure (SMILES)	pKi
C=CCNC(=O)C(=O)C(CC1CC1)NC(=O)[C@@H]1[C@@H]2[C@H](CN1C(=O)[C@@H](NC(=O)N[C@H](CN(C)S(C)(=O)=O)C(C)(C)C)C(C)(C)C)C2(C)C (some centres unmarked) [drawing 54]	7.72
C=CCNC(=O)C(=O)C(CCC)NC(=O)[C@@H]1[C@@H]2[C@H](CN1C(=O)[C@@H](NC(=O)N[C@H](CN(C)S(=O)(=O)CC)C(C)(C)C)C1(C)CCCCC1)C2(C)C (some centres unmarked) [drawing 63]	8.00
C=CCNC(=O)C(=O)C(CCC)NC(=O)[C@@H]1[C@@H]2[C@H](CN1C(=O)[C@@H](NC(=O)N[C@H](CN(C)S(=O)(=O)N1CCCCC1)C(C)(C)C)C(C)(C)C)C2(C)C (some centres unmarked) [drawing 56]	7.82

From US7759499B2, “Compounds as inhibitors of hepatitis C virus NS3 serine protease” (Schering Corporation, priority 2004, dated 2010)
